In publication PMC2740399 (American Journal of Physiology - Cell Physiology, 2009):

Target: T1, HA-tagged hGnRHR (Homo sapiens, UniProt P30968)
T1 sequence (P30968 1-328): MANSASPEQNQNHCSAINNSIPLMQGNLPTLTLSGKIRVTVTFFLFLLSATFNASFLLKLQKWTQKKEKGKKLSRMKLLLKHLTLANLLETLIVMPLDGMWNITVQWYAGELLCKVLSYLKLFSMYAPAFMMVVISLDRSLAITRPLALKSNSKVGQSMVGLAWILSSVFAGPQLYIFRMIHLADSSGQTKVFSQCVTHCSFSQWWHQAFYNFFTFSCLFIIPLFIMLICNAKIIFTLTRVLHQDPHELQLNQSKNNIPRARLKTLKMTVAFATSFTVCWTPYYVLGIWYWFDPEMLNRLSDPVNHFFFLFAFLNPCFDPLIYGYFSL
Experiment: Cell surface expression of HA-hGnRHR
Assay type: cell-based
Conditions: HeLa; after 18 h with IN3; not shown

cetrorelix
effect of peptide antagonist on cell surface expression: failed to reduce hGnRHR expression
